{"source": "paper PMC11262537", "about": "“Cell-Penetrating Chaperone Nuc1 for Small- and Large-Molecule Delivery Into Retinal Cells and Tissues” (Investigative Ophthalmology & Visual Science, 2024)", "tested_on": "MNU-induced retinal apoptosis (ONL)", "test": "N-methyl-nitrosourea (MNU)-induced retinal apoptosis, TUNEL", "type": "in vivo, C57BL/6J mice", "conditions": "1.4 µg XIAP (± 0.4 µg Nuc1) intravitreal 4 h before 50 mg/kg MNU i.p., eyes harvested after 24 h"}
{"substance": "XIAP: recombinant human X-linked inhibitor of apoptosis protein", "values": [{"measurement": "reduction in number of TUNEL-positive cells relative to MNU (untreated MNU-injected mice)", "result": 2.2, "unit": "%"}]}
